Measurements from patent US20070059799A1.

B1: peptide 26.0549 (peptide)
peptide: LLPIFFCLWVY
modifications: not checked
B2: peptide 1.0215 (peptide)
peptide: TTDLEAYFK
modifications: not checked

How the values were obtained:
Conditions in all cases: remark: other sources report otherwise
HLA-A*3101 (human) = molecular target: HLA-A*3101 (human)
HLA-A*03 (human) = molecular target: HLA-A*03 (human)
HLA-A*6801 (human) = molecular target: HLA-A*6801 (human)

Binder	IC50 (HLA-A*3101 (human)) [nM]	IC50 (HLA-A*03 (human)) [nM]	IC50 (HLA-A*6801 (human)) [nM]
B1	2610		
B2		18300	471
